From paper PMC6683251, “Flavanol Bioavailability in Two Cocoa Products with Different Phenolic Content. A Comparative Study in Humans” (Nutrients, 2019)

Experiment: Urinary excretion of flavanol metabolites (0-24 h) after a single serving of soluble cocoa product (HPLC-ESI-QToF-MS)
Assay type: in vivo, human
Conditions: mean ± SD, n = 13; for Excreted in urine, Basal: basal urine (−2–0 h, before intake); for Excreted in urine, Total: 24 h urine
Description: They were non-smoker, non-vegetarian, non-pregnant women, who were not taking any medication or nutritional supplements, and were not suffering from any chronic pathology or gastrointestinal disorder. The sample size was estimated attending to similar previous bioavailability studies. The volunteers gave their informed consent prior to participation.
The present randomized, single-blind study was carried out at the Human Nutrition Unit (HNU) of the Institute of Food Science, Technology and Nutrition (ICTAN). Volunteers attended the HNU on two days, separated by two weeks. Three days previous to each visit, participants were instructed not to consume cocoa products (chocolate, soluble cocoa, etc.), juices, tea, wine, grape must, oranges, tangerines, apples, grapes, strawberries or other berries, beets, onions, soybeans and soy derivatives.
On each intervention day, volunteers arrived at the HNU after an overnight fast. […] The soluble cocoa products, either 15 g of CC or 25 g CC-PP, were dissolved in 200 mL of semi-skimmed milk following manufacturer’s preparation instructions. Plasma was separated by centrifugation (10 min, 3000 rpm, 4 °C) and stored at −80 °C until further analysis. […] A polyphenol-free breakfast, lunch and afternoon snack were provided 2 h, 4 h, and 8 h after consumption of cocoa products, and water and isotonic beverages were available ad libitum.
Urine samples were diluted with an equivalent volume of Milli-Q water (50%) and centrifuged at 14000 rpm (10 min, 4 °C). Supernatants were filtered (0.45 μm pore-size cellulose-acetate membrane filters) and a 5 µL aliquot was directly injected into the LC-ESI-QToF-MS equipment.
The test samples, either 30 μL of the plasma extract or 5 μL of diluted urine, were injected and separated using a mobile phase consisting of Milli-Q water (phase A) and acetonitrile (phase B), both containing 0.1% formic acid, at a flow rate of 0.3 mL/min. The mobile phase was initially programmed with 90% of solvent A and 10% of B. The elution program increased to 30% of solvent B in 10 min. Then, the initial conditions (10% solvent B) were recovered in 5 min and maintained for 5 min.
Due to the lack of standards for certain phase II metabolites, they were tentatively quantified using the calibration curves of their corresponding phenolic precursors. […] The rest of microbial metabolites identified, derivatives of hydroxyphenylpropionic, hydroxyphenylacetic, hydroxybenzoic and hippuric acids, were quantified using their respective commercially available standards. Urine concentration of the excreted metabolites was normalized by the volume excreted in each studied interval. […] Calibration curves were freshly prepared in a pool of both plasma and urine due to matrix effects.
Statistical analyses were carried out using the program SPSS (version 23.0, SPSS, Inc., IBM Company, New York, NY, USA). Significant differences between metabolites excreted in urine after consumption of CC and CC-PP cocoa products were evaluated based on non-parametric Wilcoxon test (p < 0.05).

[1] = after CC-PP (68.25 mg flavanols)

5-Phenyl-γ-valerolactone-methoxy-glucuronide [PVL-methoxy-glucuronide]
Excreted in urine, Basal (CC intervention): <L.Q. | Excreted in urine, Basal (CC-PP intervention): <L.Q. | Excreted in urine, Total (after CC (19.80 mg flavanols)): 0.111 ± 0.039 µmol | Excreted in urine, 0–4 h (after CC (19.80 mg flavanols)): <L.Q. | Excreted in urine, 4–8 h (after CC (19.80 mg flavanols)): 0.111 ± 0.039 µmol | Excreted in urine, 8–12 h (after CC (19.80 mg flavanols)): <L.Q. | Excreted in urine, 12–24 h (after CC (19.80 mg flavanols)): <L.Q. | Excreted in urine, Total [1]: 0.555 ± 0.134 µmol | Excreted in urine, 0–4 h [1]: <L.Q. | Excreted in urine, 4–8 h [1]: 0.340 ± 0.074 µmol | Excreted in urine, 8–12 h [1]: 0.084 ± 0.014 µmol | Excreted in urine, 12–24 h [1]: 0.131 ± 0.046 µmol

5-Phenyl-γ-valerolactone-methoxy-sulfate [PVL-methoxy-sulfate]
Excreted in urine, Basal (CC intervention): <L.Q. | Excreted in urine, Total (after CC (19.80 mg flavanols)): 0.085 ± 0.031 µmol | Excreted in urine, 4–8 h (after CC (19.80 mg flavanols)): 0.085 ± 0.031 µmol | Excreted in urine, 8–12 h (after CC (19.80 mg flavanols)): <L.Q. | Excreted in urine, 12–24 h (after CC (19.80 mg flavanols)): <L.Q. | Excreted in urine, Total [1]: 0.177 ± 0.047 µmol | Excreted in urine, 0–4 h [1]: <L.Q. | Excreted in urine, 4–8 h [1]: 0.177 ± 0.036 µmol | Excreted in urine, 8–12 h [1]: <L.Q. | Excreted in urine, 12–24 h [1]: <L.Q.

O=C1CCC(Cc2ccc(O[C@@H]3O[C@H](C(=O)O)[C@@H](O)[C@H](O)[C@H]3O)c(O)c2)O1 (stereo partly drawn) [HPVL-4′-glucuronide, 5-(3′-Hydroxyphenyl)-γ-valerolactone-4′-glucuronide]
Excreted in urine, Total (after CC (19.80 mg flavanols)): 0.111 ± 0.049 µmol | Excreted in urine, 4–8 h (after CC (19.80 mg flavanols)): 0.111 ± 0.049 µmol
